Legend:
[1] = target: Tyrosine-protein kinase BTK (Homo sapiens, UniProt Q06187); experiment: Inhibition of His-tagged full-length recombinant wild-type human BTK (Ala2 to Ser659 residues) expressed in baculovirus infected insect cells incubated for 30 mins in presence of ATP by Microfluidic chip based mobility shift assay
[2] = target: Tyrosine-protein kinase BTK (Homo sapiens, UniProt Q06187, T474I); experiment: biochemical
[3] = target: Tyrosine-protein kinase BTK (Homo sapiens, UniProt Q06187, T474M); experiment: Inhibition of BTK T474M mutant (unknown origin) expressed in baculovirus infected Trichoplusia ni pro cells incubated for 30 mins in presence of ATP by Microfluidic chip based mobility shift assay; parameters: species or system Tni PRO
[4] = target: Tyrosine-protein kinase BTK (Homo sapiens, UniProt Q06187, C481S); experiment: Inhibition of BTK C481S mutant (unknown origin) expressed in baculovirus infected Sf9 insect cells incubated for 30 mins in presence of ATP by Microfluidic chip based mobility shift assay
[5] = target: Tyrosine-protein kinase BTK (Homo sapiens, UniProt Q06187, C481R); experiment: biochemical

Chains of the proteins cited; added tags and fusions are not shown. Residues count along the entry.
UniProt Q06187, 2-659 T474I limits assumed: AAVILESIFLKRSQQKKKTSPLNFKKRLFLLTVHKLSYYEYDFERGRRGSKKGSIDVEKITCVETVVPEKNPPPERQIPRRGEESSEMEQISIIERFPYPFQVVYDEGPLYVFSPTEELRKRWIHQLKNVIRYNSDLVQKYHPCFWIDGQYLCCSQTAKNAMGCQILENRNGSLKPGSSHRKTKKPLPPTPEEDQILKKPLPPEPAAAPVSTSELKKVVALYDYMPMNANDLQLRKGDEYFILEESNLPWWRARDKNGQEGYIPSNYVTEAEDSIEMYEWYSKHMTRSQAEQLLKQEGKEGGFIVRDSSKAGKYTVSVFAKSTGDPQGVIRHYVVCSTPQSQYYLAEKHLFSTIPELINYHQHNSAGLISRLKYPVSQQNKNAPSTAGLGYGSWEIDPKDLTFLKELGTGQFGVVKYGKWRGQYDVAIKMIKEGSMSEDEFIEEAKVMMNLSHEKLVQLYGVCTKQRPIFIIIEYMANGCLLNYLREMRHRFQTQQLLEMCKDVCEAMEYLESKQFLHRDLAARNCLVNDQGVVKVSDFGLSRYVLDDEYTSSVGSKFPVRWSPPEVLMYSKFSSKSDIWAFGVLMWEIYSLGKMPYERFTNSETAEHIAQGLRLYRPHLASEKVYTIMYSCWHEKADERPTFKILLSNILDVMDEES
UniProt Q06187, 2-659 T474M limits assumed: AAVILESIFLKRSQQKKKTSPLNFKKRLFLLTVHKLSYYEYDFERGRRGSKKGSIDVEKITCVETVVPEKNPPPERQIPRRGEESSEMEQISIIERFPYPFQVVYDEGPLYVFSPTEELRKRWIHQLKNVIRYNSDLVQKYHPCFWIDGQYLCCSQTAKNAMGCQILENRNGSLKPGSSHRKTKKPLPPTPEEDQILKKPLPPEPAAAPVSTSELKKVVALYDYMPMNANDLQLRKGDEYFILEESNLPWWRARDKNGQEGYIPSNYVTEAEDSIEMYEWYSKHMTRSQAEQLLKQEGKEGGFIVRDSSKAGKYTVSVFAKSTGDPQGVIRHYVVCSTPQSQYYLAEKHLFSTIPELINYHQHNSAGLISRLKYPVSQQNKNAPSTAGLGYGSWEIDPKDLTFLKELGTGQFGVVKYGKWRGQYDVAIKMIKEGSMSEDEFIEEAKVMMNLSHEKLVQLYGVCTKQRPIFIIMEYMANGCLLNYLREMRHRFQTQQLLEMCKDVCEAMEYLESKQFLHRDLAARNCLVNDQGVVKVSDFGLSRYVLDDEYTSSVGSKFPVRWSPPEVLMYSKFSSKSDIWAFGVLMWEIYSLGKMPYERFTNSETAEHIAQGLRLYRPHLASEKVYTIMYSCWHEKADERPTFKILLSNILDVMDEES
UniProt Q06187, 2-659 C481S limits assumed: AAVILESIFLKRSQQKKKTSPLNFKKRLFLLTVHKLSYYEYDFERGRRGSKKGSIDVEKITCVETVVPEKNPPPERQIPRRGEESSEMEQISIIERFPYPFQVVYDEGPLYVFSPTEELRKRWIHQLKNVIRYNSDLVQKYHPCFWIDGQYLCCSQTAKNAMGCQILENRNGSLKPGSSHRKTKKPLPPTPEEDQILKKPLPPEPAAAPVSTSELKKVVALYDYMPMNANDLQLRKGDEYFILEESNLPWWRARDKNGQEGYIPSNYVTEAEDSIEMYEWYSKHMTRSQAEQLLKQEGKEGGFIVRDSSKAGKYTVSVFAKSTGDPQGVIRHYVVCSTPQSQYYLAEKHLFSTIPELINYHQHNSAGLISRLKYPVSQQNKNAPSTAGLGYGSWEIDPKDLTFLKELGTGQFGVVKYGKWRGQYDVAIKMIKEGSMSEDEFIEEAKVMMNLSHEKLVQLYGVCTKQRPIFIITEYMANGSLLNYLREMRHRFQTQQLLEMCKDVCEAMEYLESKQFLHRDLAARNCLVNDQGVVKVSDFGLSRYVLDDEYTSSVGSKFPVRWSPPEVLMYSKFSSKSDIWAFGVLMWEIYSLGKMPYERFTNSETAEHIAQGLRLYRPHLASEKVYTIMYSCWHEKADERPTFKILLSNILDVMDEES
UniProt Q06187, 2-659 C481R limits assumed: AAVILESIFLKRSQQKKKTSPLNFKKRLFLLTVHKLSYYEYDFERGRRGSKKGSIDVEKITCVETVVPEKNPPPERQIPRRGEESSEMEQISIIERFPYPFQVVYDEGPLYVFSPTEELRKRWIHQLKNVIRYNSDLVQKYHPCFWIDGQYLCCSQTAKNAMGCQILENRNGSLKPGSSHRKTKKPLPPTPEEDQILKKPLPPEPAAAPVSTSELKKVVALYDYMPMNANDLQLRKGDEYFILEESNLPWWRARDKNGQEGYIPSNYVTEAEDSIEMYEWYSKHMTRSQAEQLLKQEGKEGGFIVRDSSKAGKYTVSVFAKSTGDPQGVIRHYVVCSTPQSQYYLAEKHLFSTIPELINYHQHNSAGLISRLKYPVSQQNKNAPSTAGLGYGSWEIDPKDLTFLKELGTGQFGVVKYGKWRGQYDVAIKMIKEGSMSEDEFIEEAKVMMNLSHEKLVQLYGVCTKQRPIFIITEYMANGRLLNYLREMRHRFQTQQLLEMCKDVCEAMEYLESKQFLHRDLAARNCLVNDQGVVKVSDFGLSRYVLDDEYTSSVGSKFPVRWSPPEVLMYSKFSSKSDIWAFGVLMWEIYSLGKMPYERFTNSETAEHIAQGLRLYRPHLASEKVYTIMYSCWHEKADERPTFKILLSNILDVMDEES

## C=CC(=O)Nc1cccc(Nc2nc(Nc3ccc(OCCOC)cc3)ncc2F)c1 [SPEBRUTINIB]
[1]
  IC50: 22 nM
[2]
  IC50: 48 nM
[3]
  IC50: 75 nM
[4]
  IC50: 908 nM
[5]
  IC50: 854 nM

Source: ChEMBL document CHEMBL5120879, “Medicinal Chemistry Strategies for the Development of Bruton's Tyrosine Kinase Inhibitors against Resistance” (J Med Chem, 2022)
